Assay results published in patent EP0440303A1 (PROBICOM RESEARCH B.V., priority 1990, dated 1991).

Biological target: T1, tripeptidase of L.lactis subsp. cremoris Wg2 (Lactococcus lactis subsp. cremoris, UniProt P0C2T7)
T1 sequence (P0C2T7 1-413): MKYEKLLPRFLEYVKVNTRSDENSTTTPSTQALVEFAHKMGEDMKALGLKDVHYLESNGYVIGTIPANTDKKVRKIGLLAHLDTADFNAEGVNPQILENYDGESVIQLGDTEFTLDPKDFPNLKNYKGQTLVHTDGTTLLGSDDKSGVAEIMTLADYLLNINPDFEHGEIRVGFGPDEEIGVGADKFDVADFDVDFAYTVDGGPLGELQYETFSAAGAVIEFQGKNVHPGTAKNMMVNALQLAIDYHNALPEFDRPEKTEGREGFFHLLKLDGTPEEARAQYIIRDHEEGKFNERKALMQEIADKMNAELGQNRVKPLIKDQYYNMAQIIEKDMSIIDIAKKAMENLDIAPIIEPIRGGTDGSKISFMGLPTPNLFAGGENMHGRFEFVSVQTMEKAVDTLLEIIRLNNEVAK
Test: Substrate specificity: peptide hydrolysis analysed by TLC
Format: biochemical
Design: key: + : hydrolysis; - : no hydrolysis
Details: peptide hydrolysis by the purified peptidase, 2 mM substrate in 20 mM HEPES (pH 7.0), 60 min at 30°C

Row | SMILES | activity
1 | C[C@H](N)C(=O)N1CCC[C@H]1C(=O)NCC(=O)O [Ala-Pro-Gly] | -
2 | CC(C)C[C@H](NC(=O)[C@@H]1CCCN1C(=O)[C@@H](N)C(C)C)C(=O)O [Val-Pro-Leu] | -
